The numbers were not newly measured in US20220175776A1 (Frequency Therapeutics, Inc., priority 2019, published 2022), which cites them from elsewhere.

Chains of the proteins cited; added tags and fusions are not shown.
UniProt P27338, whole entry: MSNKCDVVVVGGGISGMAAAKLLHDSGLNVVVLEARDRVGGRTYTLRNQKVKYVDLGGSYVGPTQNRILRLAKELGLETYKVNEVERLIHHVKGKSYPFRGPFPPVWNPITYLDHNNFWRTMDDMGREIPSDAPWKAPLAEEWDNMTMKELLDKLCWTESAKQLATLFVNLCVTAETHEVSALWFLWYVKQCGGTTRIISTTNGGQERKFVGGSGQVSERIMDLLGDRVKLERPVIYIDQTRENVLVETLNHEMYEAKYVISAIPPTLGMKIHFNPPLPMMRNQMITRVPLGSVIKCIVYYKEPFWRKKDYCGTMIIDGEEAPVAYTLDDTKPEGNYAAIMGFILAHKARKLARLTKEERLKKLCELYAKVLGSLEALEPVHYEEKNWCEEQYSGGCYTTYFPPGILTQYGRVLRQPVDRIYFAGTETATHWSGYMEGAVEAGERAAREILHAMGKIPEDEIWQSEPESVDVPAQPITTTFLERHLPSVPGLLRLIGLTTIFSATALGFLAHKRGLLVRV
UniProt O75530, whole entry: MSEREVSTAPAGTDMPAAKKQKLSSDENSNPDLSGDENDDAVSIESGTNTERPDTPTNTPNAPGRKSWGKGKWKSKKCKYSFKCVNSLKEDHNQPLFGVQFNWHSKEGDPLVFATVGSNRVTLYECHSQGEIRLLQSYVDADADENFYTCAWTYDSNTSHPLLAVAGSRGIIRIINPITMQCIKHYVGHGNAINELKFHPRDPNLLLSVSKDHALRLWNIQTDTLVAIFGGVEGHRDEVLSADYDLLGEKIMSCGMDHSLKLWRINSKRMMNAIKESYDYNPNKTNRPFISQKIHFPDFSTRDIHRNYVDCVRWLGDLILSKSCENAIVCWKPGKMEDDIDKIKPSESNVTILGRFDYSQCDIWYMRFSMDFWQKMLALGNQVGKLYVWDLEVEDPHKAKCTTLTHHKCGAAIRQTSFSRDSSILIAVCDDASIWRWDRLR
UniProt Q15910, whole entry: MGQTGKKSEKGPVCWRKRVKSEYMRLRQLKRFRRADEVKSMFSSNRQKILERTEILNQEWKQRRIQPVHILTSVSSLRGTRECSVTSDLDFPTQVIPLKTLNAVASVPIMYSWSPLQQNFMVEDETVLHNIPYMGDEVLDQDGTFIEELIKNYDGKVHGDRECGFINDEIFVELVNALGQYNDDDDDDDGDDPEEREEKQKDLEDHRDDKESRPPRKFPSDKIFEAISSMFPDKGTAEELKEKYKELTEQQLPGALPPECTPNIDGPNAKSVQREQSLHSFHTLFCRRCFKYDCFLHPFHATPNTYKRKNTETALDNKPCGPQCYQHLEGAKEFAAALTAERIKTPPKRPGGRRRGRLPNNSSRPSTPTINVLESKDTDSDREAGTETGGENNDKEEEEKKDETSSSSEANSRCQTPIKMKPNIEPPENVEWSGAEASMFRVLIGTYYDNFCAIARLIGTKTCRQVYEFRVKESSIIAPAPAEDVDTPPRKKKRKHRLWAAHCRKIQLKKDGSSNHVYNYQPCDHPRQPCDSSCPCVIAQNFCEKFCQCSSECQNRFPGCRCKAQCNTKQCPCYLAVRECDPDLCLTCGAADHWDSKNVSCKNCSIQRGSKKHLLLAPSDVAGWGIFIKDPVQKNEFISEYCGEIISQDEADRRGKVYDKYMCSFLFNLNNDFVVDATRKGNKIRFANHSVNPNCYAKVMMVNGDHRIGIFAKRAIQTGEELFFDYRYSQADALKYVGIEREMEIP

For data set [1], the target named is MAO B (Homo sapiens, UniProt P27338). The note with it: Table 6; marked B or second value of cell; read-out: Select MAOs A and B: MAO B; cited from earlier work.
The target in data set [2] is EZH2 (Homo sapiens, UniProt O75530+Q15910). The note with it: Table 7; includes EED, SAM-competitive and SAH-hydrolase inhibitors; read-out: pKi or IC50 (converted); cited from earlier work.

SMILES strings stand for the structures.

In the case of `N[C@H]1CC[C@H](N[C@@H]2C[C@H]2c2ccccc2)CC1` [ORY-1001], the IC50 in data set [1] was more than 100 µM.
With `CCN(c1cc(C#CCN2CCOCC2)cc(C(=O)NCc2c(C)cc(C)[nH]c2=O)c1C)[C@H]1CC[C@H](N(C)CCOC)CC1` [EPZ-011989], in data set [2], the IC50 is less than 0.003 µM.
